Test results from BindingDB's records for doi:10.1016/0014-5793(95)01389-x (Max-Planck-Institut, 1995).

By UniProt entry, the sequences of proteins in these tests, tags left out.
UniProt P30966, whole entry: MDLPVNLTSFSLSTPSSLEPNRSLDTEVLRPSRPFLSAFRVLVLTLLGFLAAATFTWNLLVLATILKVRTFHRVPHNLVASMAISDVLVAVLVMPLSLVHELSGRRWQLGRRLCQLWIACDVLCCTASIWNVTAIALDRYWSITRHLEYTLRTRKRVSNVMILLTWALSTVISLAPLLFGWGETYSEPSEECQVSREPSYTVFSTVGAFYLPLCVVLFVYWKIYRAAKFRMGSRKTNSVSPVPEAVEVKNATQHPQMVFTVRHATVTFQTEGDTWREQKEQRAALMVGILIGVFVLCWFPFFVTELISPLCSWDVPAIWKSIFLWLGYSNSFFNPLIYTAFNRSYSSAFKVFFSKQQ

Biological target: 5-hydroxytryptamine receptor 5A (Mus musculus, UniProt P30966)

In the case of `NCCc1c[nH]c2ccc(O)cc12` [[3H]-5-HT], the Ki is reported as 1100 nM.
